Data on one compound can be found in ChEMBL document CHEMBL1123166, “Design and synthesis of 2-(arylamino)-4(3H)-quinazolinones as novel inhibitors of rat lens aldose reductase” (J Med Chem, 1986).

In this assay the target is Aldo-keto reductase family 1 member B1 (Rattus norvegicus, UniProt P07943). The assay is described as follows: Compound was tested for its ability to inhibit crude aldose reductase obtained from rat lens. The essentials: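 Crude enzyme prepared from rat lens. Reaction at pH 6.2 in 0.1 M phosphate buffer with 0.104 mM NADPH and 1.5 mM DL-glyceraldehyde as substrate. NADPH consumption followed at 340 nm against a blank lacking substrate. Percent inhibition from rate versus substrate-only control. IC50 from linear regression of log dose-response using at least three concentrations, three replicates each, for compounds exceeding 50% inhibition at 100 μM.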

`O=C1NC(=O)[C@@]2(CCOc3ccc(F)cc32)N1` [SORBINIL]: the IC50 amounted to 20 nM.

For orientation: IC50 means the midpoint of a concentration-inhibition curve. A lower IC50 goes with greater potency.
